Test results from patent US20210163536A1.

Protein sequences, listed by entry. Tags and fused reporters are not part of them. Lines headed by an entry give the natural chain unless they say otherwise; changes in a name come on top.
UniProt P32245, whole entry: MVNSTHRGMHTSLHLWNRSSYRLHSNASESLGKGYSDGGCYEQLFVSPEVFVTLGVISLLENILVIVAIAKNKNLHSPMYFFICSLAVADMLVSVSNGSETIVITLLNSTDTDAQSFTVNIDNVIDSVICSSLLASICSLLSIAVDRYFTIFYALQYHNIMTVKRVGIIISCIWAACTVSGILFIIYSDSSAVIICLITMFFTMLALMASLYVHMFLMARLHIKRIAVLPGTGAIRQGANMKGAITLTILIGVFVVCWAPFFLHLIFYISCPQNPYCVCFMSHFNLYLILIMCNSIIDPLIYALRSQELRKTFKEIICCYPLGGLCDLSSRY
UniProt Q01726: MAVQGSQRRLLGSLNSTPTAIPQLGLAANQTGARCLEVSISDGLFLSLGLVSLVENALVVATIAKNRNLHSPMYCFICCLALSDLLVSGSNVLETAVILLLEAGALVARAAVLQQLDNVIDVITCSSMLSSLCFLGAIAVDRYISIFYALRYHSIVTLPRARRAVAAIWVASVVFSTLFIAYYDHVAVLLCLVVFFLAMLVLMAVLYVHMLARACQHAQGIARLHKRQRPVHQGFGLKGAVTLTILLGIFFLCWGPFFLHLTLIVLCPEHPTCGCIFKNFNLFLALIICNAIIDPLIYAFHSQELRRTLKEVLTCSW
UniProt P33032: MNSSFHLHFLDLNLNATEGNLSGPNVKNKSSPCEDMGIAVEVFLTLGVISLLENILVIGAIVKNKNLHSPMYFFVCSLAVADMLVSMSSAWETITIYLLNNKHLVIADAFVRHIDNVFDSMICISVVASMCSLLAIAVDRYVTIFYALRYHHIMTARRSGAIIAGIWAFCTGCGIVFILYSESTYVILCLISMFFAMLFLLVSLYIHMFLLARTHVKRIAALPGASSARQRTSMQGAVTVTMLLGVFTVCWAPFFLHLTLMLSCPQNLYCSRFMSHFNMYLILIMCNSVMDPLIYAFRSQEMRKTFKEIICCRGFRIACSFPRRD
UniProt P41968: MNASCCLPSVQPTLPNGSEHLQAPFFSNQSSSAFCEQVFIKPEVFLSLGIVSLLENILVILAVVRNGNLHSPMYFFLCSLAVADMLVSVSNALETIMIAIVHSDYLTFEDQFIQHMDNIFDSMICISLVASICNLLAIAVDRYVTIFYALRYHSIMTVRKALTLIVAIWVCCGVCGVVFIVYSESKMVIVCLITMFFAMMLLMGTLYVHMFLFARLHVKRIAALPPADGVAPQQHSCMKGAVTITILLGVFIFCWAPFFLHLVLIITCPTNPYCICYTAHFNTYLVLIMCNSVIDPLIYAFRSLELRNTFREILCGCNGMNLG

Assays:
Assay in all cases: competition with [125I]-NDP-alpha-MSH, CHO-K1 cell membranes
[1] = biological target: human melanocortin-4 receptor (human) (UniProt P32245)
[2] = biological target: human melanocortin-1 receptor (human) (UniProt Q01726)
[3] = biological target: human melanocortin-5 receptor (human) (UniProt P33032)
[4] = biological target: human melanocortin-3 receptor (human) (UniProt P41968)

B1: cyclo[Hydantoin(C(O)-(Cys-D-Ala))-His-D-Phe-Arg-Trp-Cys]-NH2 (peptide)
peptide: HXRWC
modifications: not fully specified; hydantoin ring from Cys 1, C(O) and the amino group of D-Ala 2; D-Ala 2; D-Phe 4; disulfide Cys 1-Cys 7 (cyclo); C-terminal amide
- Ki [1]: 0.126 µM
- Ki [2]: 0.23 µM
- Ki [3]: 7.02 µM
- Ki [4]: 7.59 µM
